Source: paper PMC5132201, “Formylated MHC Class Ib Binding Peptides Activate Both Human and Mouse Neutrophils Primarily through Formyl Peptide Receptor 1” (PLoS ONE, 2016)

System: Fpr2^-/- neutrophils
Experiment: NADPH-oxidase activity in neutrophils from wild type versus Fpr2-/- mice
Assay type: cell-based, mouse

## CC[C@H](C)[C@H](NC(=O)[C@H](CC(N)=O)NC(=O)[C@@H](NC(=O)[C@H](Cc1ccccc1)NC(=O)[C@H](Cc1ccc(O)cc1)NC(=O)[C@H](CCSC)NC=O)[C@@H](C)CC)C(=O)N[C@@H](CC(C)C)C(=O)N[C@H](C(=O)N[C@@H](CC(C)C)C(=O)O)[C@@H](C)O (For-MYFINILTL-OH; C-terminus assumed)
  Activity in Fpr2-/- neutrophils compared with WT neutrophils: comparable

Peptide text beside a SMILES is read from it. * marks the point of attachment. For = O=C*
